# Most compounds without a hit are left out; they make up all but 1.9% or so of the library.
# PglD DTNB = PglD (C. jejuni) enzyme inhibition | hit rate 0.098% among 360,000 | AID 602405 | purified PglD enzyme, DTNB colorimetric CoA detection | inhibition, % at 12.5 µM; in the data active means inhibition above about 16%, passing the limit was not always enough
# PDI inh = PDI (human) enzyme inhibition; PDI insulin aggregation turbidity, A650, 90 min; inhibition, % at 10 µM; hit rate 0.052% among 350,000; AID 588391;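 active means mean inhibition across replicates of 30% or more, whatever share of single replicates reach that level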
# UUG fidelity = yeast start codon fidelity modulation | S. cerevisiae UUG-firefly luciferase reporter, luminescence/redox ratio | activity score, % at 18.7 µM | hit rate 0.13% among 350,000 | AID 602363;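 active means replicate mean at a twofold rise or more, about +100% in these data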;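 further: firefly luciferase made from a UUG start codon reports start codon fidelity; reporter light over untreated wells divided by growth signal over untreated wells; some hits fall short of that in this replicate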
# FGF22 binding = shifts melting point of recombinant human FGF22 | activity (Tm shift, normalised), % at 9.99 µM | hit rate 1.5% among 340,000 | recombinant FGF22 thermal shift, SYPRO orange fluorescence; percent of sucrose octasulfate shift, DMSO zero | Q9HCT0;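 active means mean Tm shift, scaled 0 neutral to 100 positive control, at about 1.3% or above, every replicate too, limit read from the data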
# ERp5 inh = inhibitors of human ERp5. Q15084. ERp5 insulin aggregation, absorbance 650 nm, 90 min. inhibition, % at 9.99 µM. hit rate 0.05% among 350,000;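 active means mean replicate inhibition above about 25%, with every replicate also reaching it, limit read from the data, passing the limit was not always enough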
# ARNT TACC3 PPI = ARNT/TACC3 interaction disruption | AlphaScreen His-ARNT PAS-B/GST-TACC3 binding, luminescence; TACC3 fragment carries E629A point mutation | hit rate 0.66% among 390,000 | inhibition, % at 9.99 µM | Q9Y6A5;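 active means mean inhibition of replicates at least 50% and at least half of replicates each reaching 50%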;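 further: 0% = complete ARNT plus TACC3 wells and 100% = ARNT alone without TACC3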
# Numbers without * were called inactive; x = no result given.
# Field names: A = PglD DTNB; B = PDI inh; C = UUG fidelity; D = FGF22 binding; E = ERp5 inh; F = ARNT TACC3 PPI
1	C[C@H]1CN([C@@H](C)CO)C(=O)c2ccccc2-c2ccccc2CO[C@@H]1CN(C)C(=O)Nc1ccc(-c2ccccc2)cc1
  A = x; B = x; C = x; D = -1; E = -1; F = x

2	CN(NC(=O)c1ccco1)c1nc2ccccc2nc1C(F)(F)F
  A = x; B = -5; C = x; D = 43*; E = 2; F = -3

3	C[C@]12CC[C@H](OC(=O)CCC(=O)O)CC1=CCC1C2CC[C@@]2(C)C1CC[C@@H]2N (stereo not given in full)
  A = 7; B = 3; C = -5; D = 43*; E = -7; F = -6

4	CC(=O)OCC(=O)C1CCC2C3CC=C4CC(O)CCC4(C)C3CCC12C (stereo not given)
  A = 2; B = 9; C = -8; D = 0; E = -8; F = 25

5	Cc1noc(C)c1NC(=O)N(C)C[C@@H]1OCCCC[C@@H](C)Oc2ccc(NC(=O)NC(C)C)cc2C(=O)N([C@H](C)CO)C[C@H]1C
  A = x; B = x; C = x; D = 0; E = -1; F = x

6	COC(=O)c1cccc(NC(=S)Nc2cc(Cl)ccc2OC)c1
  A = x; B = 8; C = x; D = 43*; E = -3; F = 30

7	COc1ccc(Cl)cc1NC(=S)NNC(=O)c1cccnc1
  A = x; B = 0; C = x; D = 43*; E = -1; F = -1

8	CC(C)CC#Cc1cnc2c(c1)C(=O)N([C@H](C)CO)C[C@H](C)[C@@H](CN(C)Cc1cccc(F)c1)O2
  A = 1; B = x; C = 23; D = 0; E = 2; F = 4

9	CC(C)NC(=S)N/N=C1\CCCc2ccccc21
  A = x; B = 0; C = x; D = 43*; E = 1; F = -8

10	Cc1ccc(S(=O)(=O)/N=C2\C=C(Nc3cccc(C(=O)O)c3)C(=O)c3ccccc32)cc1
  A = 6; B = -1; C = -20; D = 0; E = 2; F = x

11	CCc1ccc(S(=O)(=O)/N=C2\C=C(Nc3ccc(C(=O)O)cc3)C(=O)c3ccccc32)cc1
  A = 1; B = 7; C = -25; D = 0; E = -5; F = 74*

12	COC(=O)c1ccccc1NC1=C/C(=N\S(=O)(=O)c2ccc(C(=O)O)cc2)c2ccccc2C1=O
  A = 1; B = -14; C = -11; D = x; E = x; F = 72*

13	O=C([C@H]1[C@H](CO)[C@H]2Cn3c(cccc3=O)[C@H]2N1CC1CCCC1)N1CCc2ccccc2C1
  A = -5; B = x; C = x; D = 0; E = -5; F = 11

14	Cc1noc(C)c1NC(=O)N(C)C[C@H]1Oc2ccc(NC(=O)CCN3CCOCC3)cc2C(=O)N([C@H](C)CO)C[C@H]1C
  A = 1; B = x; C = 8; D = 0; E = 2; F = -4

15	O=C(c1cnccn1)N1CC[C@H]2[C@H](CO)Nc3ccc(-c4ccccc4F)cc3[C@H]21
  A = -4; B = x; C = -2; D = x; E = x; F = -5

# Arranged by the number under PDI inh (highest first): some entries from above.
cpd	Molecule	PglD DTNB	PDI inh	UUG fidelity	ERp5 inh	ARNT TACC3 PPI
4	CC(=O)OCC(=O)C1CCC2C3CC=C4CC(O)CCC4(C)C3CCC12C (stereo not given)	2	9	-8	-8	25
11	CCc1ccc(S(=O)(=O)/N=C2\C=C(Nc3ccc(C(=O)O)cc3)C(=O)c3ccccc32)cc1	1	7	-25	-5	74*
2	CN(NC(=O)c1ccco1)c1nc2ccccc2nc1C(F)(F)F	x	-5	x	2	-3

# Next part.
# Field names: A = PglD DTNB; B = PDI inh; C = UUG fidelity; D = FGF22 binding; E = ERp5 inh; F = ARNT TACC3 PPI
16	CC(=O)c1cccc(N(C(=O)c2ccco2)C(C(=O)NC2CCCC2)c2ccc(N3CCOCC3)cc2)c1 (stereo not given)
  A = x; B = 8; C = x; D = 43*; E = 4; F = -11

17	COC(=O)c1cccc(N(C(=O)c2ccco2)C(C(=O)NC2CCCC2)c2ccc(N3CCOCC3)cc2)c1 (stereo not given)
  A = 0; B = 4; C = 9; D = 42; E = 4; F = -4

18	CC(=O)N1CCN(C(=O)COc2ccccc2C(=O)Nc2ccccc2)CC1
  A = -3; B = 6; C = -9; D = 43*; E = 1; F = -7

19	COc1ccccc1C(=O)Nc1ccc(N2CCN(C(C)=O)CC2)cc1
  A = x; B = 10; C = x; D = 42; E = -5; F = -1

20	C[C@H]1CN([C@@H](C)CO)C(=O)c2cc(NC(=O)Cc3ccccc3)ccc2O[C@H]1CN(C)Cc1ccc(C(=O)O)cc1
  A = 6; B = x; C = x; D = 0; E = 0; F = -17

21	COc1cccc(NC(=S)NNC(=O)C(C)n2nc(C)c([N+](=O)[O-])c2C)c1 (stereo not given)
  A = 3; B = 4; C = -27; D = x; E = x; F = -5

22	COc1cccc(/C=N/NC(=O)Cn2nc(C)c([N+](=O)[O-])c2C)c1O
  A = -2; B = -6; C = -7; D = 0; E = 0; F = 65*

23	COc1cccc(/C=N/NC(=O)C(C)n2nc(C)c([N+](=O)[O-])c2C)c1O (stereo not given)
  A = x; B = 9; C = x; D = 0; E = 0; F = 88*

24	Cc1nn(CC(=O)N/N=C/c2cccs2)c(C)c1[N+](=O)[O-]
  A = x; B = -3; C = x; D = 0; E = 2; F = -4

25	CC(C)NC(=O)N(C)C[C@H]1OCCCC[C@@H](C)Oc2ccc(NC(=O)c3ccncc3)cc2C(=O)N([C@@H](C)CO)C[C@@H]1C
  A = -2; B = x; C = 0; D = 0; E = -1; F = -14

26	O=C(Nc1ccccc1F)N1CCCCN2[C@@H](CO)[C@H](c3ccc(C#Cc4ccccc4)cc3)[C@@H]2C1
  A = 0; B = x; C = 9; D = 0; E = -2; F = -3

27	CN(C)CCCNC(=O)[C@@H]1[C@@H](CO)[C@@H]2Cn3c(cccc3=O)[C@H]1N2CC1CC1
  A = 5; B = x; C = x; D = 0; E = 1; F = -1

28	CCOC(=O)C1CCCN(CCC(=O)Nc2cc(C)cc(C)c2)C1 (stereo not given)
  A = x; B = 2; C = x; D = 44*; E = -4; F = -2

29	COc1ccc(OCCNS(=O)(=O)c2cccc([N+](=O)[O-])c2)cc1
  A = x; B = 3; C = x; D = 43*; E = 6; F = -2

30	CCNC(=O)C[C@H]1CC[C@H]2[C@H](COc3ccc(NC(=O)Nc4ccc(C)cc4)cc3C(=O)N2C)O1
  A = 4; B = x; C = 2; D = 0; E = -1; F = 0

31	Cc1nc(Nc2nc3ccccc3o2)nc(C)c1C
  A = x; B = 14; C = x; D = 44*; E = 1; F = -10

32	Cc1ccc2oc(Nc3nc(C)c(C)c(C)n3)nc2c1
  A = x; B = -5; C = x; D = 0; E = 2; F = -5

33	COc1ccccc1NC(=O)N[C@@H]1CC[C@@H](CC(=O)N2CCC(Cc3ccccc3)CC2)O[C@H]1CO
  A = -1; B = x; C = 8; D = 0; E = 0; F = 3

34	CCOP(=O)(OCC)C(NC(=O)Nc1c(C)cc(C)cc1C)c1ccccc1 (stereo not given)
  A = 2; B = 4; C = 24; D = 43*; E = 2; F = -5

35	CCOP(=O)(OCC)C(NC(=O)Nc1ccccc1)c1ccccc1 (stereo not given)
  A = -3; B = 2; C = 0; D = 0; E = 7; F = -1

36	O=C(Nc1ccccc1F)N1CCCCN2[C@H](CO)[C@H](c3ccc(/C=C/c4ccccc4)cc3)[C@H]2C1
  A = 4; B = x; C = 4; D = 0; E = -8; F = 30

37	O=C(O)c1cc(-c2ccc(/C=N/N3C(=O)C4C5C=CC(CC5)C4C3=O)o2)ccc1Cl (stereo not given)
  A = x; B = 7; C = x; D = 0; E = 2; F = 6

38	O=C(O)c1cc(-c2ccc(/C=N/N3C(=O)C4C5C=CC(C6CC56)C4C3=O)o2)ccc1Cl (stereo not given)
  A = x; B = -3; C = x; D = 43*; E = 1; F = -1

39	CCn1c(CNC(=O)c2ccco2)nnc1SCC(=O)c1ccc(OC)cc1
  A = x; B = -6; C = x; D = 43*; E = 3; F = 4

40	CCn1c(CNC(=O)c2ccco2)nnc1SCC(=O)c1ccc(F)cc1
  A = 1; B = -2; C = -21; D = 0; E = -4; F = -5

41	CC1=CC(C)C(=O)N(CCN2CCOCC2)C(C)=C1 (stereo not given)
  A = 2; B = -13; C = -6; D = 43*; E = 2; F = x

42	COc1ccc(S(=O)(=O)Nc2cccc3c2O[C@H](CN(C)Cc2ccccc2)[C@@H](C)CN([C@@H](C)CO)C3=O)cc1
  A = 1; B = x; C = 11; D = 0; E = -9; F = 0

43	CC(NC(=O)Cn1cccc1C(=O)c1ccccc1)c1ccc2c(c1)OCCO2 (stereo not given)
  A = x; B = 7; C = x; D = 43*; E = 13; F = 0

# Source: PubChem BioAssay
